# Reference: ChEMBL document CHEMBL5126587, “Anti-HCV and Zika activities of ribavirin C-nucleosides analogues” (Bioorg Med Chem, 2022)
# Experiments:
# Assay type in all cases: functional, organism-based
# Hepatitis C virus = details: Hepacivirus hominis; genotype 2a (JFH-AM71); Huh7-J20; time 72.0 hrs
# Zika virus [1] = details: H/PAN/2016/BEI-259634, Vero, time 3.0 day
# Zika virus [2] = details: H/PAN/2016/BEI-259634, Huh7.5, time 3.0 day
Compound,Activity (Hepatitis C virus),Activity (Zika virus [1]),Activity (Zika virus [2])
NC(=O)c1ncn([C@@H]2O[C@H](CO)[C@@H](O)[C@H]2O)n1 [RIBAVIRIN],Dde,–,–
O=C(NCCCO)c1n[nH]nc1[C@@H]1O[C@H](CO)[C@@H](O)[C@H]1O,Dde,–,–
CCCNC(=O)c1n[nH]nc1[C@@H]1O[C@H](CO)[C@@H](O)[C@H]1O,Dde,–,–
O=C(NO)c1n[nH]nc1[C@@H]1O[C@H](CO)[C@@H](O)[C@H]1O,Dde,Dde,Dde
NC(=O)c1n[nH]nc1[C@@H]1O[C@H](CO)[C@@H](O)[C@H]1O,Dde,–,–
